From ChEMBL document CHEMBL1140427, “Semi-rational design of (north)-methanocarba nucleosides as dual acting A(1) and A(3) adenosine receptor agonists: novel prototypes for cardioprotection” (J Med Chem, 2005)

Amino acid sequences for entries named in this document (tags omitted).
UniProt P28647, whole entry: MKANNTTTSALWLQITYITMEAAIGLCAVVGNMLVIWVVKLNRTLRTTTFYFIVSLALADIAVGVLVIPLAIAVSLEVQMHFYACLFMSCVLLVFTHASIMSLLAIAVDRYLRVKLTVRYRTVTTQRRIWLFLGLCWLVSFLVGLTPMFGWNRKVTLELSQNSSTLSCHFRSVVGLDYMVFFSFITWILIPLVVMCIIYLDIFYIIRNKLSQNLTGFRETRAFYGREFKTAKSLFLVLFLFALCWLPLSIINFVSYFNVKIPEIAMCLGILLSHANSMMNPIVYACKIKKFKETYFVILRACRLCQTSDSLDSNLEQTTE

Target: Adenosine receptor A3 (Rattus norvegicus, UniProt P28647)
Assay: Binding affinity to rat adenosine A3 receptor in CHO cells
Format: cell-based

Ki: 97 nM
Structure (SMILES): OC[C@H]1O[C@@H](n2cnc3c(NC4CCCC4)ncnc32)[C@H](O)[C@@H]1O [N6-CYCLOPENTYLADENOSINE]
